# Literature values, collected in US7288565B2, “Azasugar compound” (Mitsubishi Chemical Corporation, priority 2001, dated 2007).
# Molecular target: T1, α-mannosidase (α-Man-ase; EC 3.2.1.24) (Canavalia ensiformis, UniProt C0HJB3)
# T1 construct: Jack Bean-derived α-mannosidase (α-Man-ase; α-D-mannoside mannohydrolase; EC 3.2.1.24) (Sigma); purchased Sigma; host or cells: jack bean (natural source)
# T1 sequence (C0HJB3 1-562 limits assumed): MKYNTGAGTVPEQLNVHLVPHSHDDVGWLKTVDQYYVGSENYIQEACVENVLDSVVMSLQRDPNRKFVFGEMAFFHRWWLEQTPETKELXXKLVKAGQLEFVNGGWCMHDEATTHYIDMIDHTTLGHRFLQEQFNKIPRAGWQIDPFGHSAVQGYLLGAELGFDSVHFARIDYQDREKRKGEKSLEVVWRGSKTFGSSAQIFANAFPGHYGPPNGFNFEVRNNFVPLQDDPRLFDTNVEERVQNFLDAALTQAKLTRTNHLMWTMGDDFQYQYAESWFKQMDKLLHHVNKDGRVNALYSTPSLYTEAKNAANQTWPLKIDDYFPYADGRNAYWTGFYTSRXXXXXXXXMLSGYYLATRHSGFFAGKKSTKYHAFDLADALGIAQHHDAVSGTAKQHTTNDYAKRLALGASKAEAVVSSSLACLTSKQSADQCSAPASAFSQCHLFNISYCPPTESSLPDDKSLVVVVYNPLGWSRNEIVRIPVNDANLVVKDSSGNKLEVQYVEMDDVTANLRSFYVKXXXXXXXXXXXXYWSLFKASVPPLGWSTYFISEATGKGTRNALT
# T1 sequence (C0HJB3 563-981 partner limits assumed): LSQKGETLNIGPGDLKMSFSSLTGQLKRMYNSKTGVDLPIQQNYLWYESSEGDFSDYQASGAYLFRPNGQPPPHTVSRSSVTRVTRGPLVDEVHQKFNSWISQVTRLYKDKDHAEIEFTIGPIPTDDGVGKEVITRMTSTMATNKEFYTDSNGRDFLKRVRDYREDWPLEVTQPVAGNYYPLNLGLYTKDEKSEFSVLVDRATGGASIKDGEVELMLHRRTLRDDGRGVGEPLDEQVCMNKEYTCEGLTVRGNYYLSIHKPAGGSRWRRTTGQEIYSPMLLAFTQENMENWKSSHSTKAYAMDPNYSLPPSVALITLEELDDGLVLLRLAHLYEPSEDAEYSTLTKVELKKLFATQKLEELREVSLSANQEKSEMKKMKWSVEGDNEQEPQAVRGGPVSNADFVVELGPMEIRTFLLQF
# Settings: Saotome et al. 2000
compound,measurement,value
OC[C@H]1NC[C@@H](O)[C@@H](O)[C@@H]1O [deoxymannojirimycin],Ki,43 µM
